Results from patent US9458198B1, “Cyclic peptide-based NPR-B agonists” (priority 2009, dated 2016).

Target: T1, NPR-B (Homo sapiens, UniProt P20594)
T1 construct: a functional assay using endogenously NPR-B expressing GTM-3 cells; endogenous in cells; host or cells: GTM-3 (transformed human trabecular meshwork cells)
T1 sequence (P20594 23-1047): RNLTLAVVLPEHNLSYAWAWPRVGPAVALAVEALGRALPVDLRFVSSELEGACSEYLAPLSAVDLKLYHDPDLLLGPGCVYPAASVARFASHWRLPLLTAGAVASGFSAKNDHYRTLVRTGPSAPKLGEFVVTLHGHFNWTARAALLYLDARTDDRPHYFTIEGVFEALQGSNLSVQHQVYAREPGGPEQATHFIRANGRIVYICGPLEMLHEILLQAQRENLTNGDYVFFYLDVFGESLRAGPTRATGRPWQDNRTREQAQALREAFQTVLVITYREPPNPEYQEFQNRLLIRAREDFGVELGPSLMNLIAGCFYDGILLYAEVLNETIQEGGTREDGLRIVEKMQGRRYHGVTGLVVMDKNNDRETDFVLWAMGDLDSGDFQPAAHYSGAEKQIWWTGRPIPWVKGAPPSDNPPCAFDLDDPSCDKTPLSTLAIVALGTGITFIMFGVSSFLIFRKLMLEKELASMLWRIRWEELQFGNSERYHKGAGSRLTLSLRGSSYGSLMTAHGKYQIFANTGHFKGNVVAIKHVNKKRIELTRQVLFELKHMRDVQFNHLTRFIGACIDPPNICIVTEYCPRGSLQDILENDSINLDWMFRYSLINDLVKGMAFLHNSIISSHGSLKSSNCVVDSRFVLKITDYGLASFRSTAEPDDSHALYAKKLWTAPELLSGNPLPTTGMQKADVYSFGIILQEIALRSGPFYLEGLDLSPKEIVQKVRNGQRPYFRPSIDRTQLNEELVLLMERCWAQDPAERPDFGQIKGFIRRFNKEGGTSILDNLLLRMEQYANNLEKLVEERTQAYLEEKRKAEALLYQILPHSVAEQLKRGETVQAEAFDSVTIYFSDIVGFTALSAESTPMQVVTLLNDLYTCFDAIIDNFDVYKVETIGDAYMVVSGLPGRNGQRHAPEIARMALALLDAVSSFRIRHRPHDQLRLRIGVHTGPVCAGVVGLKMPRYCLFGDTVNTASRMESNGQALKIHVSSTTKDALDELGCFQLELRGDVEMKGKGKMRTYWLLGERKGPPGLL
Test: NPR-B induced production of cyclic GMP in GTM-3 cells
Format: cell-based
Settings: group needs both EC50 and Emax criteria, checked A then B then C, read-out: Activity (group): NPR-B activation, EC50 and Emax (CNP = 100%)
Method: The efficacy and potency of compounds to activate NPR-B were evaluated in a functional assay using endogenously NPR-B expressing GTM-3 cells (Pang et al. 1994, Curr Eye Res 13:51-63). In this assay the dose dependent production of cyclic GMP (cGMP) is determined and Emax (maximum activation) and EC50 values are calculated.
The cell culture medium is aspirated and each well is washed with 200 μl DMEM/Ham's F12=Medium (Gibco). Then, 200 μl Medium supplemented with 1 mM IBMX (3-Isobutyl-1-methyl-xanthin, Sigma) is added to each well and incubated for 15 min. at room temperature.
Final compound concentrations are in the range from 45 μM to 20 nM.

Question: For CC[C@H](C)[C@@H]1NC(=O)[C@H](CCCNC(=N)N)NC(=O)[C@H](CC(=O)O)NC(=O)[C@H](CC(C)C)NC(=O)[C@H](CCCCN)NC(=O)[C@H](CC(C)C)NC(=O)CNC(=O)[C@H](Cc2ccccc2)NC(=O)[C@H](Cc2c[nH]cn2)NC(=O)[C@@H](NC(=O)[C@H](CCSC)NC(C)=O)CSSC[C@@H](C(N)=O)NC(=O)[C@H](CO)NC1=O [compound 14], which EC50 is on record?
Answer: < 5 µM

Question: How did the EC50 turn out when CC[C@H](C)[C@@H]1NC(=O)[C@H](CCCNC(=N)N)NC(=O)[C@H](CC(=O)O)NC(=O)[C@H](CC(C)C)NC(=O)[C@H](CCCCN)NC(=O)[C@H](CC(C)C)NC(=O)CNC(=O)[C@H](Cc2ccccc2)NC(=O)CCNC(=O)[C@@H](NC(=O)[C@@H](N)CCSC)CSSC[C@@H](C(N)=O)NC(=O)[C@H](CO)NC1=O [compound 31] was run?
Answer: < 5 µM

Question: Which EC50 does the source give for CC[C@H](C)[C@@H]1NC(=O)[C@H](CCCNC(=N)N)NC(=O)[C@H](CC(=O)O)NC(=O)[C@H](CC(C)C)NC(=O)[C@H](CCCCN)NC(=O)[C@H](CC(C)C)NC(=O)C(C)(C)NC(=O)[C@H](Cc2ccccc2)NC(=O)[C@@H](Cc2c[nH]cn2)NC(=O)[C@@H](NC(=O)[C@@H](N)CCSC)CSSC[C@@H](C(N)=O)NC(=O)[C@H](CO)NC1=O [compound 36] here?
Answer: < 5 µM

Question: With CSCC[C@H](N)C(=O)N[C@H]1CSSC[C@@H](C(N)=O)NC(=O)[C@H](CO)NC(=O)[C@H](C(C)(C)C)NC(=O)[C@H](CCCNC(=N)N)NC(=O)[C@H](CC(=O)O)NC(=O)[C@H](CC(C)C)NC(=O)[C@H](CCCCN)NC(=O)[C@H](CC(C)C)NC(=O)CNC(=O)[C@H](Cc2ccccc2)NC(=O)[C@@H](Cc2c[nH]cn2)NC1=O [compound 43] as the compound, how does the EC50 read?
Answer: < 5 µM

Question: Which EC50 does the source give for CC[C@H](C)[C@@H]1NC(=O)[C@H](CCCNC(=N)N)NC(=O)[C@H](CC(=O)O)NC(=O)[C@H](CC(C)C)NC(=O)[C@H](CCCCN)NC(=O)[C@H](CC(C)C)NC(=O)CNC(=O)[C@H](Cc2ccccc2)NC(=O)[C@@H](Cc2cccs2)NC(=O)[C@@H](NC(=O)[C@@H](N)CCSC)CSSC[C@@H](C(N)=O)NC(=O)[C@H](CO)NC1=O [compound 44] here?
Answer: < 5 µM

Question: For CC[C@H](C)[C@@H]1NC(=O)[C@H](CCCNC(=N)N)NC(=O)[C@H](CC(=O)O)NC(=O)[C@H](CC(C)C)NC(=O)[C@H](CCCCN)N(C)C(=O)[C@H](CC(C)C)NC(=O)CNC(=O)[C@H](Cc2ccccc2)NC(=O)[C@@H](Cc2c[nH]cn2)NC(=O)[C@@H](NC(=O)[C@@H](N)CCSC)CSSC[C@@H](C(N)=O)NC(=O)[C@H](CO)NC1=O [compound 46], which EC50 is on record?
Answer: < 5 µM

Question: With CC[C@H](C)[C@@H]1NC(=O)[C@H](CCCNC(=N)N)NC(=O)[C@H](CC(=O)O)NC(=O)[C@H](CC(C)C)N(C)C(=O)[C@H](CCCCN)NC(=O)[C@H](CC(C)C)NC(=O)CNC(=O)[C@H](Cc2ccccc2)NC(=O)[C@@H](Cc2c[nH]cn2)NC(=O)[C@@H](NC(=O)[C@@H](N)CCSC)CSSC[C@@H](C(N)=O)NC(=O)[C@H](CO)NC1=O [compound 47] as the compound, how does the EC50 read?
Answer: < 5 µM

Question: With CC[C@H](C)[C@@H]1NC(=O)[C@H](CCCNC(=N)N)N(C)C(=O)[C@H](CC(=O)O)NC(=O)[C@H](CC(C)C)NC(=O)[C@H](CCCCN)NC(=O)[C@H](CC(C)C)NC(=O)CNC(=O)[C@H](Cc2ccccc2)NC(=O)[C@@H](Cc2c[nH]cn2)NC(=O)[C@@H](NC(=O)[C@@H](N)CCSC)CSSC[C@@H](C(N)=O)NC(=O)[C@H](CO)NC1=O [compound 48] as the compound, how does the EC50 read?
Answer: < 5 µM

Question: How did the EC50 turn out when CC[C@H](C)[C@@H]1NC(=O)[C@H](CCCNC(=N)N)NC(=O)[C@H](CC(=O)O)NC(=O)[C@H](CC(C)C)NC(=O)[C@H](CCN)NC(=O)[C@H](CC(C)C)NC(=O)CNC(=O)[C@H](Cc2ccccc2)NC(=O)[C@@H](C)NC(=O)[C@@H](NC(=O)[C@@H](N)CCSC)CSSC[C@@H](C(N)=O)NC(=O)[C@H](CO)NC1=O [compound 50] was run?
Answer: < 5 µM

Question: With CC[C@H](C)[C@@H]1NC(=O)[C@H](CCCNC(=N)N)NC(=O)[C@H](CC(=O)O)NC(=O)[C@H](CC(C)C)NC(=O)[C@H](CCCN)NC(=O)[C@H](CC(C)C)NC(=O)CNC(=O)[C@H](Cc2ccccc2)NC(=O)[C@@H](C)NC(=O)[C@@H](NC(=O)[C@@H](N)CCSC)CSSC[C@@H](C(N)=O)NC(=O)[C@H](CO)NC1=O [compound 51] as the compound, how does the EC50 read?
Answer: < 5 µM

Question: With CC[C@H](C)[C@@H]1NC(=O)[C@H](CCCNC(=N)N)NC(=O)[C@H](CC(=O)O)NC(=O)[C@H](CC(C)C)NC(=O)[C@H](CCCCCN)NC(=O)[C@H](CC(C)C)NC(=O)CNC(=O)[C@H](Cc2ccccc2)NC(=O)[C@@H](C)NC(=O)[C@@H](NC(=O)[C@@H](N)CCSC)CSSC[C@@H](C(N)=O)NC(=O)[C@H](CO)NC1=O [compound 52] as the compound, how does the EC50 read?
Answer: < 5 µM

Question: CC[C@H](C)[C@@H]1NC(=O)[C@H](CCCNC(=N)N)NC(=O)[C@H](CS(=O)(=O)O)NC(=O)[C@H](CC(C)C)NC(=O)[C@H](CCCCN)NC(=O)[C@H](CC(C)C)NC(=O)CNC(=O)[C@H](Cc2ccccc2)NC(=O)[C@@H](C)NC(=O)[C@@H](NC(=O)[C@@H](N)CCSC)CSSC[C@@H](C(N)=O)NC(=O)[C@H](CO)NC1=O [compound 55] was tested. Which EC50 did it give?
Answer: < 5 µM

Question: Which EC50 does the source give for CC[C@H](C)[C@@H]1NC(=O)[C@H](CCCNC(=N)N)NC(=O)[C@H](CC(=O)O)NC(=O)[C@H](CC(C)C)NC(=O)[C@H](CCCCN)NC(=O)[C@H](CC(C)C)NC(=O)CNC(=O)[C@H](Cc2ccccc2)NC(=O)[C@@H](C)NC(=O)[C@@H](NC(=O)[C@@H](N)CCSC)CSSC[C@@H](C(N)=O)NC(=O)CCNC1=O [compound 58] here?
Answer: < 5 µM

Question: How did the EC50 turn out when CC[C@H](C)[C@@H]1NC(=O)[C@H](CCCNC(=N)N)NC(=O)[C@H](CC(=O)O)NC(=O)[C@H](CC(C)C)NC(=O)[C@H](CCCCN)NC(=O)[C@H](CC(C)C)NC(=O)CNC(=O)[C@H](Cc2ccccc2)NC(=O)[C@@H](C)NC(=O)[C@@H](NC(=O)[C@@H](N)CCSC)CCSSC[C@@H](C(N)=O)NC(=O)[C@H](CO)NC1=O [compound 59] was run?
Answer: < 5 µM

Question: How did the EC50 turn out when CC[C@H](C)[C@@H]1NC(=O)[C@H](CCCNC(=N)N)NC(=O)[C@H](CC(=O)O)NC(=O)[C@H](CC(C)C)NC(=O)[C@H](CCCCN)NC(=O)[C@H](CC(C)C)NC(=O)CNC(=O)[C@H](Cc2ccccc2)NC(=O)[C@@H](C)NC(=O)[C@@H](NC(=O)[C@@H](N)CCSC)CCSSCC[C@@H](C(N)=O)NC(=O)[C@H](CO)NC1=O [compound 60] was run?
Answer: < 5 µM

Question: For CC[C@H](C)[C@@H]1NC(=O)[C@H](CCCNC(=N)N)NC(=O)[C@H](CC(=O)O)NC(=O)[C@H](CC(C)C)NC(=O)[C@H](CCCCN)NC(=O)[C@H](CC(C)C)NC(=O)CNC(=O)[C@H](Cc2ccccc2)NC(=O)[C@@H](C)NC(=O)[C@@H](NC(=O)[C@@H](N)CCSC)CSSCCNC(=O)[C@H](CO)NC1=O [compound 61], which EC50 is on record?
Answer: < 1 µM

Question: With CC[C@H](C)[C@@H]1NC(=O)[C@H](CCCNC(=N)N)NC(=O)[C@H](CC(=O)O)NC(=O)[C@H](CC(C)C)NC(=O)[C@@]2(C)CCCN2C(=O)[C@H](CC(C)C)NC(=O)CNC(=O)[C@H](Cc2ccccc2)NC(=O)[C@@H](C)NC(=O)[C@@H](NC(=O)[C@@H](N)CCSC)CSSC[C@@H](C(N)=O)NC(=O)[C@H](CO)NC1=O [compound 74] as the compound, how does the EC50 read?
Answer: < 5 µM

Question: Which EC50 does the source give for CCCCCC(=O)N[C@H]1CSSC[C@@H](C(N)=O)NC(=O)[C@H](CO)NC(=O)[C@H]([C@@H](C)CC)NC(=O)[C@H](CCCNC(=N)N)NC(=O)[C@H](CC(=O)O)NC(=O)[C@H](CC(C)C)NC(=O)[C@@H]2CCN2C(=O)[C@H](CC(C)C)NC(=O)CNC(=O)[C@H](Cc2ccccc2)NC(=O)[C@@H](C)NC1=O [compound 75] here?
Answer: < 5 µM

Question: Which EC50 does the source give for CCCCCC(=O)N[C@H]1CSSC[C@@H](C(N)=O)NC(=O)[C@H](CO)NC(=O)[C@H]([C@@H](C)CC)NC(=O)[C@H](CCCNC(=N)N)NC(=O)[C@H](CC(=O)O)NC(=O)[C@H](CC(C)C)NC(=O)[C@H](CCCCN)NC(=O)[C@H](CC(C)C)NC(=O)CNC(=O)[C@H](Cc2ccccc2Cl)NC(=O)[C@@H](C)NC1=O [compound 76] here?
Answer: < 5 µM

Question: For CCCCCC(=O)N[C@H]1CSSC[C@@H](C(N)=O)NC(=O)[C@H](CO)NC(=O)[C@H]([C@@H](C)CC)NC(=O)[C@H](CCCNC(=N)N)NC(=O)[C@H](CC(=O)O)NC(=O)[C@H](CC(C)C)NC(=O)[C@H](CCCCN)NC(=O)[C@H](CC(C)C)NC(=O)CNC(=O)[C@H](Cc2cccc(Cl)c2)NC(=O)[C@@H](C)NC1=O [compound 77], which EC50 is on record?
Answer: < 1 µM
